This is an account of results in patent US20090143311A1, “Compositions comprising tripeptides inhibiting ace” (priority 2005, published 2009).

As usually defined, the amount remaining is what is left of the initial amount, in per cent.

Each structure is given as a SMILES string.

A short description of data set [1]: gastro-intestinal treatment (GIT procedure) of CDBAP. It counts as in vitro ADME, human. The method, then:
After consumption, dietary proteins and peptides are exposed to various digestive enzymatic processes in the gastrointestinal tract. In order to assess the stability of the newly identified bioactive peptides in the human gastrointestinal tract, the CDBAP preparation (prepared as described in Example 7) was subjected to a gastro-intestinal treatment (GIT) simulating the digestive conditions typically found in the human body. Samples obtained after various incubation times in the GIT model system were analysed using the on-line HPLC-Bioassay-MS or HRS-MS system to quantify any residual MAP and ITP peptides. The GIT procedure was performed in a standardized mixing device incorporating a 100 ml flask (as supplied by Vankel, US). The temperature of the water bath was set to 37.5° C. and the paddle speed was chosen such that the sample was kept in suspension (100 rpm). […] During gastric simulation 5 M HCl was used to decrease the pH. At the end of gastric simulation and during the duodenal phase 5 M NaOH was used to raise the pH. […] The total N concentration of the powder as obtained was determined and converted to protein level using the Kjeldahl factor of casein (6.38). […] The levels of MAP and ITP surviving the proteolytic treatment according to the GIT procedure were determined as described in Example 7 and the data obtained are shown in Table 10.

The nature of data set [2]: Simulated in-vitro gastro-intestinal digestion of synthetic MAP and ITP. It counts as in vitro ADME. The following applies: for remaining at 0.5 h, 1 microgram/ml / remaining at 1 h, 1 microgram/ml: simulated gastric fluid, pH 3.5. The source says: For the dissolution the following solutions were used: […] Simulated gastric fluid; […]
[3] abbreviates: simulated intestinal fluid, pH 6.8.

`CC[C@H](C)[C@H](N)C(=O)N[C@H](C(=O)N1CCC[C@H]1C(=O)O)[C@@H](C)O` [ITP, Isoleucine-Threonine-Proline]: the “Concentration in CDBAP before GIT procedure” value in data set [1] is 903.7 μg g^−1 powder. In data set [2] (10 microgram/ml, 90 minutes, intestinal conditions pH 6.8), the “% average remaining” value is 62%. In addition, in data set [2], the share remaining at 0.5 h, 1 microgram/ml is 99% and the share remaining at 1 h, 1 microgram/ml was 85%. In data set [2] (setting [3]), this compound yielded a fraction remaining at 65 min, 1 microgram/ml of 65%; a fraction remaining at 1.25 h, 1 microgram/ml of 65%; a share remaining at 1.25 h, 10 microgram/ml of 63%; a share remaining at 2 h, 1 microgram/ml of 64%.
As to `CSCC[C@H](N)C(=O)N[C@@H](C)C(=O)N1CCC[C@H]1C(=O)O` [MAP, Methionine-Alanine-Proline], the “Concentration in CDBAP before GIT procedure” value in data set [1] is 2851.4 μg g^−1 powder. In data set [2], the amount remaining at 0.5 h, 1 microgram/ml is 93% and the amount remaining at 1 h, 1 microgram/ml was 62%. In data set [2] (setting [3]), the fraction remaining at 65 min, 1 microgram/ml was 51%; the share remaining at 1.25 h, 1 microgram/ml is 49%; the share remaining at 1.25 h, 10 microgram/ml is 27%; the share remaining at 1.5 h, 1 microgram/ml is 28%.
